The values below come from patent US8927500B2, “Peptidomimetic macrocycles” (Aileron Therapeutics, Inc., priority 2012, dated 2015).

Sequences of proteins named here, by UniProt entry; tags and fusion partners are left off. Residues count along the entry.
UniProt Q00987, 1-125: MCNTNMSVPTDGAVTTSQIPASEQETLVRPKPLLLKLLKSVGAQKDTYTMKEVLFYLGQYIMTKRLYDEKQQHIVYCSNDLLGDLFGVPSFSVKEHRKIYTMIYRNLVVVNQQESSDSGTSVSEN

Where two headings read alike, the source gives them in different places.

The target of one test is MDM2 (Homo sapiens, UniProt Q00987). Nature of the test: Competitive fluorescence polarization assay for MDM2. It counts as binding. The conditions noted are these: competitive FP assay.
In the next test the target is T1, MDMX (Homo sapiens, UniProt O15151).
T1 sequence (O15151 1-125): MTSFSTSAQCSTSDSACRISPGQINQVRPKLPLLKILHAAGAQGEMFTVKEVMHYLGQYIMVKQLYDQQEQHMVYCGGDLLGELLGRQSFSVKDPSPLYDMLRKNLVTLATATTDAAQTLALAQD
Nature of the test: Competitive fluorescence polarization assay for MDMX. The format is binding. For orientation: Polarisation of emitted light reports the rotation of a fluorescent probe.

Another test has as its system p21. Nature of the test: P21 ELISA assay in SJSA1 cells. The format is cell-based, Human. The conditions noted are these: for p21 0.3 uM: 0.3 uM peptide; for p21 1 uM: 1 uM peptide; for p21 3 uM: 3 uM peptide; for p21 10 uM: 10 uM peptide; for p21 30 uM: 30 uM peptide. On the technique in general: An ELISA detects its analyte on a solid surface through an enzyme-linked reagent.

In the next test the test system is RKO cells. Nature of the test: Cell viability assay (MTT), RKO. Conditions: read-out: RKO EC50 (72 h).
Setting [1] is: competitive FP assay, read-out: IC50 (MDMX).
[2] abbreviates: competitive FP assay, read-out: Ki (MDMX).

Take `CC(=O)N[C@@H](CC(C)C)C(=O)N[C@H](C(=O)N[C@@H](Cc1ccccc1)C(=O)N[C@]1(C)CCCCCCC=CCCC[C@@](C)(C(=O)N[C@@H](CO)C(=O)N[C@@H](C)C(=O)N[C@H](C)C(N)=O)NC(=O)[C@H](CC(C)C)NC(=O)[C@H](CCC(N)=O)NC(=O)[C@H](C)NC(=O)[C@H](Cc2c[nH]c3ccccc23)NC(=O)[C@H](Cc2ccc(O)cc2)NC(=O)[C@H](C)NC1=O)[C@@H](C)O` (single isomer, unassigned) [compound 112]: the IC50 at MDM2 and on MDMX (setting [1]) was 100 to 1000 nM each time. In addition, the Ki at MDM2 and on MDMX (setting [2]) was 10 to 100 nM in each case.
With `CC(=O)N[C@@H](CC(C)C)C(=O)N[C@H](C(=O)N[C@@H](Cc1ccccc1)C(=O)N[C@]1(C)CCCCCCC=CCCC[C@@](C)(C(=O)N[C@@H](C)C(=O)N[C@@H](C)C(=O)N[C@@H](C)C(=O)N[C@@H](C)C(=O)N[C@@H](C)C(=O)N[C@@H](C)C(=O)N[C@H](C)C(N)=O)NC(=O)[C@H](CC(C)C)NC(=O)[C@H](CCC(N)=O)NC(=O)[C@H](C)NC(=O)[C@H](Cc2c[nH]c3ccccc23)NC(=O)[C@H](Cc2ccc(O)cc2)NC(=O)[C@H](C)NC1=O)[C@@H](C)O` (single isomer, unassigned) [compound 316], the IC50 (in general, the concentration that inhibits the measured activity by half) at MDMX (IC50 (MDMX), competitive FP assay) lay within 100 to 1000 nM. Besides, the Ki (usually a measure of affinity in units of concentration, obtained from inhibition or displacement) at MDMX (Ki (MDMX), competitive FP assay) fell in the range of 10 to 100 nM. In the test on p21, the “p21 0.3 uM” value is recorded as 1319, the “p21 1 uM” value is given as 1718, the “p21 3 uM” value is listed as 2848 and the “p21 10 uM” value was 2918. Further, in the test with p21, the “p21 30 uM” value was 2540. In the test with RKO cells, the concentration for a half-maximal effect (EC50) (usually the concentration at which the effect is half-maximal) is less than 5000 nM.
Regarding `CC(=O)N[C@@H](CC(C)C)C(=O)N[C@H](C(=O)N[C@@H](Cc1ccccc1)C(=O)N[C@]1(C)CCCCCCC=CCCC[C@@](C)(C(=O)N[C@@H](C)C(=O)N[C@H](C(=O)N[C@@H](CCC(N)=O)C(N)=O)C(C)C)NC(=O)[C@H](CC(C)C)NC(=O)[C@H](CCC(N)=O)NC(=O)[C@H](C)NC(=O)[C@H](Cc2c[nH]c3ccccc23)NC(=O)[C@H](Cc2ccc(O)cc2)NC(=O)[C@H](C)NC1=O)[C@@H](C)O` (single isomer, unassigned) [compound 111], the IC50 on MDM2 and on MDMX (setting [1]) was 100 to 1000 nM throughout. For the same compound, the values for the inhibition constant (Ki) on MDM2 and on MDMX (setting [2]) were less than 10 nM and 10 to 100 nM, respectively.
For `CSCC[C@H](NC(=O)[C@H](CCC(N)=O)NC(=O)[C@H](CCC(N)=O)NC(=O)[C@]1(C)CCCC=CCCCCCC[C@@](C)(NC(=O)[C@H](Cc2ccccc2)NC(=O)[C@@H](NC(=O)[C@H](CC(C)C)NC(C)=O)[C@@H](C)O)C(=O)N[C@@H](C)C(=O)N[C@@H](Cc2ccc(O)cc2)C(=O)N[C@@H](Cc2c[nH]c3ccccc23)C(=O)N[C@@H](C)C(=O)N[C@@H](CCC(N)=O)C(=O)N[C@@H](CC(C)C)C(=O)N1)C(=O)N[C@H](CC(C)C)C(N)=O` (single isomer, unassigned) [compound 47], the IC50 at MDM2 and at MDMX (setting [1]) was 100 to 1000 nM throughout. In addition, the inhibition constant (Ki) at MDM2 and at MDMX (setting [2]) was 10 to 100 nM in each case.
As for `CC(=O)N[C@@H](Cc1c[nH]c2ccccc12)C(=O)N[C@H](C(=O)N[C@@H](Cc1ccccc1)C(=O)N[C@]1(C)CCCCCCC=CCCC[C@@](C)(C(=O)N[C@@H](C)C(=O)N[C@H](C(=O)N[C@@H](C)C(=O)N[C@H](C)C(N)=O)C(C)C)NC(=O)[C@H](CC(C)C)NC(=O)[C@H](CCC(N)=O)NC(=O)[C@H](CO)NC(=O)[C@H](Cc2c[nH]c3ccccc23)NC(=O)[C@H](Cc2ccc(O)cc2)NC(=O)[C@H](Cc2ccccc2)NC1=O)[C@@H](C)O` (single isomer, unassigned) [compound 100], the concentration for half-maximal inhibition (IC50) on MDM2 and on MDMX (setting [1]) was 100 to 1000 nM in each case. Also, the inhibitory constant (Ki) is less than 10 nM at MDM2 and 10 to 100 nM at MDMX (setting [2]).
In the case of `CCCC[C@H](NC(=O)[C@H](CCC(N)=O)NC(=O)[C@H](Cc1c[nH]cn1)NC(=O)[C@]1(C)CCCC=CCCCCCC[C@@](C)(NC(=O)[C@H](Cc2ccccc2)NC(=O)[C@@H](NC(=O)[C@H](CC(C)C)NC(C)=O)[C@@H](C)O)C(=O)N[C@@H](C)C(=O)N[C@@H](Cc2ccc(O)cc2)C(=O)N[C@@H](Cc2c[nH]c3ccccc23)C(=O)N[C@@H](C)C(=O)N[C@@H](CCC(N)=O)C(=O)N[C@@H](CC(C)C)C(=O)N1)C(=O)N[C@@H](C(N)=O)C(C)C` (single isomer, unassigned) [compound 45], the half-inhibitory concentration (IC50) at MDM2 and on MDMX (setting [1]) was 10 to 100 nM in each case. The Ki at MDM2 and on MDMX (setting [2]) was less than 10 nM throughout.
In the case of `CC(=O)N[C@@H](Cc1c[nH]c2ccccc12)C(=O)N[C@H](C(=O)N[C@@H](Cc1ccccc1)C(=O)N[C@]1(C)CCCCCCC=CCCC[C@@](C)(C(=O)N[C@@H](C)C(=O)N[C@H](C(=O)N[C@@H](C)C(N)=O)C(C)C)NC(=O)[C@H](CC(C)C)NC(=O)[C@H](CCC(N)=O)NC(=O)[C@H](CO)NC(=O)[C@H](Cc2c[nH]c3ccccc23)NC(=O)[C@H](Cc2ccc(O)cc2)NC(=O)[C@H](C(C)C)NC1=O)[C@@H](C)O` (single isomer, unassigned) [compound 102], the 50% inhibitory concentration (IC50) on MDM2 and on MDMX (setting [1]) was 100 to 1000 nM each time. In addition, the values for the Ki on MDM2 and on MDMX (setting [2]) were less than 10 nM and 10 to 100 nM, respectively.
On to `CC(=O)N[C@@H](Cc1c[nH]c2ccccc12)C(=O)N[C@H](C(=O)N[C@@H](Cc1ccccc1)C(=O)N[C@]1(C)CCCCCCC=CCCC[C@@](C)(C(=O)N[C@@H](CO)C(=O)N[C@@H](C)C(=O)N[C@@H](C)C(=O)N[C@H](C)C(N)=O)NC(=O)[C@H](CC(C)C)NC(=O)[C@H](CCC(N)=O)NC(=O)[C@H](CO)NC(=O)[C@H](Cc2c[nH]c3ccccc23)NC(=O)[C@H](Cc2ccc(O)cc2)NC(=O)[C@H](Cc2ccccc2)NC1=O)[C@@H](C)O` (single isomer, unassigned) [compound 104], for which the half-maximal inhibitory concentration (IC50) at MDM2 lay in the range of 10 to 100 nM; on MDMX (setting [1]) it was 100 to 1000 nM. The inhibitory constant (Ki) at MDM2 is less than 10 nM; at MDMX (setting [2]), 10 to 100 nM.
On MDM2, `CC(=O)N[C@@H](CC(C)C)C(=O)N[C@H](C(=O)N[C@@H](Cc1ccccc1)C(=O)N[C@]1(C)CCCCCCC=CCCC[C@@](C)(C(=O)N[C@@H](C)C(=O)N[C@@H](C)C(=O)N[C@@H](C)C(=O)N[C@@H](C)C(=O)N[C@H](C)C(N)=O)NC(=O)[C@H](CCC(C)C)NC(=O)[C@H](CCC(N)=O)NC(=O)[C@H](C)NC(=O)[C@H](Cc2c[nH]c3ccccc23)NC(=O)[C@H](Cc2ccc(O)cc2)NC(=O)[C@H](C)NC1=O)[C@@H](C)O` (single isomer, unassigned) [compound 313] returned a half-maximal inhibitory concentration (IC50) of less than 10 nM and a Ki of less than 10 nM.
Turning to `CC(=O)N[C@@H](CC(C)C)C(=O)N[C@H](C(=O)N[C@@H](Cc1ccccc1)C(=O)N[C@]1(C)CCCCCCC=CCCC[C@@](C)(C(=O)N[C@@H](C)C(=O)N[C@@H](C)C(=O)NC(C)(C)C(=O)N[C@H](C(N)=O)C(C)C)NC(=O)[C@H](CC(C)C)NC(=O)[C@H](CCC(N)=O)NC(=O)[C@H](C)NC(=O)[C@H](Cc2c[nH]c3ccccc23)NC(=O)[C@H](Cc2ccc(O)cc2)NC(=O)[C@H](C)NC1=O)[C@@H](C)O` (single isomer, unassigned) [compound 23], on MDMX (setting [1]), the half-inhibitory concentration (IC50) was 100 to 1000 nM. Besides, the inhibition constant (Ki) on MDMX (setting [2]) was 10 to 100 nM.
Consider `CC(=O)N[C@@H](CC(C)C)C(=O)N[C@H](C(=O)N[C@@H](Cc1ccccc1)C(=O)N[C@]1(C)CCCCCCC=CCCC[C@@](C)(C(=O)N[C@@H](C)C(=O)N[C@@H](C)C(=O)NC(C)(C)C(=O)N[C@H](C(N)=O)C(C)C)NC(=O)[C@H](CC(C)C)NC(=O)[C@H](CCC(N)=O)NC(=O)[C@H](C)NC(=O)[C@H](Cc2c[nH]c3ccccc23)NC(=O)[C@H](Cc2ccc(O)cc2)NC(=O)[C@H](C)NC1=O)[C@@H](C)O` (single isomer, unassigned) [compound 24], for which the half-inhibitory concentration (IC50) at MDMX (setting [1]) was in the range of 100 to 1000 nM. Moreover, at MDMX (setting [2]), the Ki lay in the range of 10 to 100 nM.
In the case of `CC(=O)N[C@@H](CC(C)C)C(=O)N[C@H](C(=O)N[C@@H](Cc1ccccc1)C(=O)N[C@]1(C)CCCCCCC=CCCC[C@@](C)(C(=O)N[C@@H](C)C(=O)N[C@@H](C)C(=O)N[C@@H](C)C(=O)N[C@@H](C)C(=O)NC(C)(C)C(=O)N[C@H](C)C(N)=O)NC(=O)[C@H](CC(C)C)NC(=O)[C@H](CCC(N)=O)NC(=O)[C@H](C)NC(=O)[C@H](Cc2c[nH]c3ccccc23)NC(=O)[C@H](Cc2ccc(O)cc2)NC(=O)[C@H](CCC(=O)O)NC1=O)[C@@H](C)O` (single isomer, unassigned) [compound 566], at MDMX (setting [2]), the Ki was in the range of 10 to 100 nM.
Turning to `CC(=O)N[C@@H](CC(C)C)C(=O)N[C@H](C(=O)N[C@@H](Cc1ccccc1)C(=O)N[C@]1(C)CCCCCCC=CCCC[C@@](C)(C(=O)N[C@@H](C)C(=O)N[C@@H](C)C(=O)N[C@@H](C)C(=O)N[C@@H](C)C(=O)N[C@@H](C)C(=O)N[C@@H](C)C(=O)N[C@H](C)C(N)=O)NC(=O)[C@H](CC(C)C)NC(=O)[C@H](CCC(N)=O)NC(=O)[C@H](C)NC(=O)[C@H](Cc2c[nH]c3ccccc23)NC(=O)[C@H](Cc2ccc(O)cc2)NC(=O)[C@H](C)NC1=O)[C@@H](C)O` (single isomer, unassigned) [compound 317], the 50% inhibitory concentration (IC50) at MDMX (read-out: IC50 (MDMX), competitive FP assay) lay in the range of 100 to 1000 nM. Also, at MDMX (read-out: Ki (MDMX), competitive FP assay), the Ki was 10 to 100 nM. Besides, in the test with p21, the “p21 0.3 uM” value is 551, the “p21 1 uM” value is 624, the “p21 3 uM” value was 776 and the “p21 10 uM” value turned out to be 1367. Also, the “p21 30 uM” value in the test on p21 is reported as 1076.
Regarding `CC(=O)N[C@@H](CC(C)C)C(=O)N[C@H](C(=O)N[C@@H](Cc1ccccc1)C(=O)N[C@]1(C)CCCCCCC=CCCC[C@@](C)(C(=O)N[C@@H](C)C(=O)N[C@@H](C)C(=O)N[C@@H](C)C(=O)N[C@@H](C)C(=O)N[C@H](C)C(N)=O)NC(=O)[C@H](CCC(C)C)NC(=O)[C@H](CCC(N)=O)NC(=O)[C@H](C)NC(=O)[C@H](Cc2c[nH]c3ccccc23)NC(=O)[C@H](Cc2ccc(O)cc2)NC(=O)[C@H](C)NC1=O)[C@@H](C)O` (single isomer, unassigned) [compound 314], at MDM2, the 50% inhibitory concentration (IC50) was less than 10 nM and the inhibitory constant (Ki) was less than 10 nM.
